Sequences of proteins named here, by UniProt entry; tags and fusion partners are left off. Residues count along the entry.
UniProt Q15116, 25-170: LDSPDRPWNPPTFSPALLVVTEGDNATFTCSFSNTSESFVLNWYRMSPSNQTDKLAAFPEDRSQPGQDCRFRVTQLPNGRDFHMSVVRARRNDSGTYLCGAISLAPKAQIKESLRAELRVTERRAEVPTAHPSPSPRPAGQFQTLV

In article PMC7788105 (iScience, 2020):

Biological target: T1, human PD-1 (programmed cell death receptor 1) (human, UniProt Q15116 25-170, 15N-labeled in the AIDA-NMR assay; covalently labeled with a fluorophore in the MST assay)
T1 construct: Programmed cell death receptor 1 (PD-1, CD279), human; In the cell-based ICB assays hPD-1 stands on Jurkat effector cells; also called hPD-1; CD279
Assay: MST; hPD-1 covalently labeled with a fluorophore, incubated with increasing concentrations of unlabeled hPD-L1 or mPD-L1; two independent dilution series, KD model
Settings: both partners purified

B1: human PD-L1 (ligand)
chain: FTVTVPKDLYVVEYGSNMTIECKFPVEKQLDLAALIVYWEMEDKNIIQFVHGEEDLKVQHSSYRQRARLLKDQLSLGNAALQITDVKLQDAGVYRCMISYGGADYKRITVKVNAPY
modifications: fluorescently labeled in the MST assay with antibodies
notes: PD-L1 (CD274, B7-H1), human; In the h/hICB assay hPD-L1 stands on CHO/TCRAct/PD-L1 cells; also called hPD-L1; CD274
Question: Which Kd does the source give for B1 here?
Answer: The Kd was 11.9 ± 2.8 µM.
